# Experimental water solubility values from OPERA 2.9

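These are experimental values that the OPERA curators gathered from public databases to train and test their QSAR models. The files give a single number for a compound and property, which may rest on several reports. Method, purity and exact conditions of the single measurements are not given. A value may pool stereoisomers or salt forms, and the file does not say which form was measured. Some entries may be limits or estimates that an upstream database listed as plain numbers.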

Water solubility is log10 of mol/L, nominally at 25 °C; higher is more soluble. "–" marks a cell with nothing listed here.

structure (SMILES) | name | log S (log10 mol/L)
CCOC(=O)NC(=O)CC(=O)NC(=O)OCC | – | -0.993
O=C(O)c1cc(=O)c2c(OCC(O)COc3cccc4oc(C(=O)O)cc(=O)c34)cccc2o1 | Cromolyn | -4.117
Cc1ncc([N+](=O)[O-])n1C | 1,2-Dimethyl-5-nitroimidazole | -0.886
CCCCCCOC(=O)C(C)OC(=O)C(C)O (configuration not stated) | 1-(Hexyloxy)-1-oxopropan-2-yl 2-hydroxypropanoate | -2.489
Cc1nn(C)c(Cl)c1C(O)=Nc1cccc2c1C(C)OC2(C)C (configuration not stated) | Furametpyr | -3.12
Cc1cc(NC(N)=O)ccc1Br | (3-Methyl-4-bromophenyl)urea | -3
CCOC(=O)[C@@H](O)[C@H](O)[C@H](O)[C@@H](O)C(=O)OCC | 1,6-Diethyl D-galactarate | -1.069
C[C@H](O)[C@H](O)[C@H]1CNc2[nH]c(N)nc(=O)c2N1 | (6R)-Tetrahydrobiopterin | -1.081
COC(=O)c1cc(F)ccc1N | Methyl 2-amino-5-fluorobenzoate | -1.956
CCC(C)(C(=O)O)N1C(=O)c2ccccc2C1=O (configuration not stated) | – | -1.916
CCOC(=O)C(C)CC (configuration not stated) | Ethyl 2-methylbutyrate | -2.336
O=S(=O)([O-])c1cc(S(=O)(=O)[O-])c2c(/N=N/c3ccccc3)c(O)ccc2c1.[Na+].[Na+] | C.I. Acid Orange 10 | -0.752
O=C(O)CSC1CCCCC1 | 2-(Cyclohexylthio)acetic acid | -1.338
CC(=O)[C@H]1CC[C@H]2[C@@H]3CCC4=CC(=O)CC[C@]4(C)[C@H]3[C@H](O)C[C@]12C | – | -3.821
C/C=C/C(=O)C1C(C)=CCCC1(C)C (stereo partly drawn) | (2E)-1-(2,6,6-Trimethyl-2-cyclohexen-1-yl)-2-buten-1-one | -3.138
Cc1ccc(S(=O)(=O)NC(O)=Nc2ccccc2)cc1 | 4-Methyl-N-(phenylcarbamoyl)benzenesulfonamide | -2.001
CCCC1CCC(c2ccc(-c3cc(F)c(F)c(F)c3)cc2)CC1 (configuration not stated) | – | -6.92
COc1ccc(CCC(=O)O)cc1 | – | -2.21
CC(C)(C)C(=O)OCCc1ccccc1 | 2-Phenylethyl pivalate | -3.675
COc1ncnc(NS(=O)(=O)c2ccc(N)cc2)c1OC | Sulfadoxine | -2.06
CCCCCCCCC(=O)OCC(CC)CCCC (configuration not stated) | Nonanoic acid, 2-ethylhexyl ester | -6.733
CN1CCN(C(=O)[C@H](OCc2ccccc2)[C@@H](OCc2ccccc2)[C@H](OCc2ccccc2)[C@@]2(COCc3ccccc3)COC(C)(C)O2)CC1 | – | -6.327
CCOC(=O)C(C)=CC(=O)OC | 1,4-Diethyl 2-methyl-2-butenedioate | -2.383
COc1cc2oc(C)cc(=O)c2c(OC)c1OC | 5,6,7-Trimethoxy-2-methyl-4H-1-benzopyran-4-one | -1.574
CCCCCCCCC=COCC | 1-Decene, 1-ethoxy- | -7.087
CCOc1ccccc1NC(=O)C(=O)Nc1ccccc1CC | N-(2-Ethoxyphenyl)-N'-(2-ethylphenyl)oxamide | -6.018
CCCCCCCC/C=C/CCCCCCCC(=O)OCC(CO)(CO)COC(=O)CCCCCCC/C=C/CCCCCCCC | – | -7.124
N#Cc1ccccc1S(=O)(=O)Nc1ccccc1 | 2-cyano-N-phenylbenzene-1-sulfonamide | -2.935
CCCCOc1ccccc1 | Butyl phenyl ether | -3.613
CN1[C@@H]2CC[C@H]1C[C@@H](OC(=O)C(O)c1ccccc1)C2 (mixture of isomers) | – | -1.44
O=S1CSCS(=O)C1 (configuration not stated) | 1,3,5-Trithiane 1,3-dioxide | -1.001
CCCCCCC(O)CCCCCCCCCCC(=O)OCC(O)CO (configuration not stated) | Octadecanoic acid, 12-hydroxy-, 2,3-dihydroxypropyl ester | -3.397
C[C@]12CCC(=O)C=C1CC[C@@H]1[C@@H]2CC[C@@]2(C)[C@H]1CC[C@@]2(O)C#CCO | 17beta-Hydroxy-17-(3-hydroxy-1-propynyl)androst-4-ene-3-one | -3.526
Nc1nc2c(ncn2[C@H]2C[C@H](O)[C@@H](COP(=O)(O)OP(=O)(O)O)O2)c(=O)[nH]1 | – | -1.89
Cc1nc(C)c(C(=O)NN)cc1C(=O)NN | 2,6-dimethylpyridine-3,5-dicarbohydrazide | -0.395
CCc1ccc(B(O)O)cc1 | 4-Ethylphenylboronic acid | -2.1
O=C1CCCCCN1C(=O)c1cccc(C(=O)N2CCCCCC2=O)c1 | – | -3.958
CCCCCCC1C(=O)CCC1C(=O)OC (configuration not stated) | Methyl 2-hexyl-3-oxocyclopentanecarboxylate | -3.085

A selection of 5 entries from above:

structure (SMILES) | name | log S (log10 mol/L)
CC(=O)[C@H]1CC[C@H]2[C@@H]3CCC4=CC(=O)CC[C@]4(C)[C@H]3[C@H](O)C[C@]12C | – | -3.821
Cc1nc(C)c(C(=O)NN)cc1C(=O)NN | 2,6-dimethylpyridine-3,5-dicarbohydrazide | -0.395
COC(=O)c1cc(F)ccc1N | Methyl 2-amino-5-fluorobenzoate | -1.956
CN1CCN(C(=O)[C@H](OCc2ccccc2)[C@@H](OCc2ccccc2)[C@H](OCc2ccccc2)[C@@]2(COCc3ccccc3)COC(C)(C)O2)CC1 | – | -6.327
CCC(C)(C(=O)O)N1C(=O)c2ccccc2C1=O (configuration not stated) | – | -1.916

Values as listed in the OPERA 2.9 repository of K. Mansouri.